# US11608331B2 (priority 2021, dated 2023)
# Experiments:
# SARS-CoV-2 Mpro = SARS-CoV-2 Mpro (Severe acute respiratory syndrome coronavirus 2, UniProt P0DTD1); test: Main protease (Mpro) assay, 3CL Protease assay kit; assay type: biochemical; conditions: read-out: inhibition activity against Mpro enzyme (inhibition percentage)
# SARS-CoV-2 PLpro = SARS-CoV-2 PLpro (Severe acute respiratory syndrome coronavirus 2, UniProt P0DTD1); test: Papain-like protease (PLpro) assay; assay type: biochemical; conditions: screening; mean±SEM of 3 replicas
smiles,measurement,setting,value
N=C(N/N=C/c1ccccc1O)c1nonc1NCNc1nonc1C(=N)N/N=C/c1ccccc1O [Compound 13],inhibition at 100 µg/mL,SARS-CoV-2 Mpro,69.8%
same,inhibition activity against SARS-CoV-2 PLpro,SARS-CoV-2 PLpro,80%
